Target: CK1δ (Homo sapiens, UniProt P48730)
Assay: PER3 nuclear translocation assay, HEK293 cells expressing CK1δ
Conditions: 1 μM

Protein sequences, listed by entry. Tags and fused reporters are not part of them. Lines headed by an entry give the natural chain unless they say otherwise; changes in a name come on top.
UniProt P48730: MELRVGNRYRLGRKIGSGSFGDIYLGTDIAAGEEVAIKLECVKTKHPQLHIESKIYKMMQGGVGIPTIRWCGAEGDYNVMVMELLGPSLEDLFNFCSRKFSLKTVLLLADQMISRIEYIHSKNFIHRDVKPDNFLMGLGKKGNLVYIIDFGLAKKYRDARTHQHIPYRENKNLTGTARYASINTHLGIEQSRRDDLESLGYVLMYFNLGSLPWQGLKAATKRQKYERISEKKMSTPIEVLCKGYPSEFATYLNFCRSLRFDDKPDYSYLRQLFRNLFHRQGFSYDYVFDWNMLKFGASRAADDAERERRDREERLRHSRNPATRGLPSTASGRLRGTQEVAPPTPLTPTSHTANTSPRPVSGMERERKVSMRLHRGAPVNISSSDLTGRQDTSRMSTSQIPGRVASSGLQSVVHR

CK1δ-induced nuclear translocation of mCherry-PER3 (1 hour pre-incubation, 8 hours doxycycline, HEK293): also inhibited the nuclear translocation | mCherry-PER3 nuclear/cytoplasmic ratio, CK1δ (compared to TG001 or vehicle, n = 20 images): significantly decreased
SMILES: Nc1nccc(-c2c(-c3ccc(F)cc3)ncn2C2CCCCC2)n1 [PF-670462]
